In patent US20250262228A1, “TREATMENT OF SPASTICITY AND PAIN IN RENALLY-IMPAIRED PATIENTS” (Jazz Pharmaceuticals Research UK Limited., priority 2022, published 2025):

Conditions: plasma, single dose of 4 sprays (10.8 mg THC and 10 mg CBD) oromucosal; for AUClast, Geometric LS Mean - Normal Renal Function / Cmax, Geometric LS Mean - Normal Renal Function: matched participants with normal renal function (eGFR >=90); for AUClast, Geometric LS Mean - Severe Renal Impairment / Cmax, Geometric LS Mean - Severe Renal Impairment: participants with severe renal impairment or ESRD (eGFR <30 mL/min/1.73 m^2)

Compound: C=C(C)[C@@H]1CCC(C(=O)O)=C[C@H]1c1c(O)cc(CCCCC)cc1O [7-COOH-CBD]
- AUClast, Geometric LS Mean - Normal Renal Function: 208 ng·h/mL
- Cmax, Geometric LS Mean - Normal Renal Function: 10.4 ng/mL

Compound: C=C(C)[C@@H]1CCC(CO)=C[C@H]1c1c(O)cc(CCCCC)cc1O [7-OH-CBD]
- AUClast, Geometric LS Mean - Normal Renal Function: 1.66 ng·h/mL
- Cmax, Geometric LS Mean - Normal Renal Function: 0.617 ng/mL
- AUClast, Geometric LS Mean - Severe Renal Impairment: 7.62 ng·h/mL

Compound: CCCCCc1cc(O)c2c(c1)OC(C)(C)[C@@H]1CCC(C(=O)O)=C[C@@H]21 [11-COOH-THC]
- AUClast, Geometric LS Mean - Normal Renal Function: 265 ng·h/mL
- Cmax, Geometric LS Mean - Normal Renal Function: 25.1 ng/mL

Compound: CCCCCc1cc(O)c2c(c1)OC(C)(C)[C@@H]1CCC(CO)=C[C@@H]21 [11-OH-THC]
- AUClast, Geometric LS Mean - Normal Renal Function: 15 ng·h/mL
- Cmax, Geometric LS Mean - Normal Renal Function: 3.42 ng/mL
- AUClast, Geometric LS Mean - Severe Renal Impairment: 47.9 ng·h/mL
- Cmax, Geometric LS Mean - Severe Renal Impairment: 7.28 ng/mL

Compound: C=C(C)[C@@H]1CCC(C)=C[C@H]1c1c(O)cc(CCCCC)cc1O [CBD, Cannabidiol, reference compound]
- AUClast, Geometric LS Mean - Severe Renal Impairment: 4.82 ng·h/mL
- Cmax, Geometric LS Mean - Severe Renal Impairment: 1.17 ng/mL

Compound: CCCCCc1cc(O)c2c(c1)OC(C)(C)[C@@H]1CCC(C)=C[C@@H]21 [THC, Δ-9-tetrahydrocannabinol, reference compound]
- AUClast, Geometric LS Mean - Normal Renal Function: 6.23 ng·h/mL
- Cmax, Geometric LS Mean - Normal Renal Function: 2.79 ng/mL
